Molecules are shown by their SMILES.

Experimental findings from patent US6251919A, “Heterocyclic substituted aniline calcium channel blockers” (Warner-Lambert, priority 1999, dated 2001) are described below.

The assay concerns male Swiss-Webster mice. The assay is described as follows: Anti-Writhing Test in Mice (AW), acetic acid. The class given is in vivo. Conditions: 10 mg/kg. The source says:
Anti-Writhing Test in Mice (AW) Test Protocol
The purpose of this test is to evaluate drugs for analgesic-like activity. The AW test determines the effect of drugs on the response to a presumed painful stimulus in mice and is used as a preliminary in vivo procedure for the identification of potential analgesic agents.
Known analgesics with low, moderate, or high efficacy in man allow mice to tolerate intra-peritoneal administration of dilute acetic acid as evidenced by lesser incidence of writhing movements. The AW test measures the nociceptive response to acetic acid in mice and provides an objective, reliable, and quantitative estimate of efficacy and potency of potential analgesic compounds. This test serves as a preclinical predictor of analgesic activity.
Subjects are male Swiss-Webster mice (25-35 g).
Compounds are dissolved or suspended in physiological saline containing 2% Emulphor. Suspensions are subjected to ultrasonication for 3 minutes. Drug doses are expressed as the active moiety and are normally administered to mice (10, 30, and 100 mg/kg IP, SC, PO, or IM) in a volume of 10 mL/kg, 1 hour prior to testing; ICV doses (in μg/kg) are administered in a volume of 0.5 mL/kg, 5 minutes prior to testing. Animals dosed PO are fasted for 16 hours prior to dosing. Groups of eight mice are tested with each dose or the vehicle solution (control group).
Mice are treated with a dilute solution of acetic acid (0.6%, 10 mL/kg IP) which elicits writhing. In four successive trials, one pair of mice from each treatment group is placed in one of four adjacent clear plexiglas chambers (4 in×4 in×4 in). This allows the simultaneous observation of four pairs of mice representing all treatments and controls throughout the test. Writhing movements (abdominal contractions, stretching of the torso and hind legs, and concave arching of the back) are counted for 5 minutes commencing 7 minutes after acetic acid administration.
Drug effects on acetic acid-induced writhing are expressed as percent suppression of writhing relative to the vehicle-treated control group run in parallel with treated animals. The writhing tallies from pairs of animals are summed for each treatment and are divided by the summed writhing in the control group. The ED50 s for suppression of writhing are determined by nonlinear regression analysis.
Background: In writhing tests, fewer writhes than in controls are read as antinociception.
For `CC(C)CCN(c1ccc(OCC2CCCCC2)cc1)C1CCN(CCC(C)(C)C)CC1` [Example 42, (4-Cyclohexylmethoxy-phenyl)-[1-(3,3-dimethyl-butyl)-piperidin-4-yl]-(3-methyl-butyl)-amine], the “Anti-Writhing % Protection” value came to 6.5%.

`CC(C)=CCN(c1ccc(OCc2ccccc2)cc1)C1CCN(Cc2ccccc2)CC1` [Example 19, (4-Benzyloxy-phenyl)-(1-benzyl-piperidin4-yl)-(3-methyl-but-2-enyl)-amine]: the “Anti-Writhing % Protection” value is 32%.

For the molecule `CC(C)=CCN(c1ccc(OCc2ccccc2)cc1)C1CCN(CCC(C)(C)C)CC1` [Example 2, (4-Benzyloxy-phenyl)-[1-(3,3-dimethyl-butyl)-piperidin-4-yl]-(3-methyl-but-2-enyl)-amine], the “Anti-Writhing % Protection” value was determined as 49%.

With `CC(C)=CCN(c1ccc(CCC(C)(C)C)cc1)C1CCN(Cc2ccc(N(C)C)cc2)CC1` [Example 39, [1-(4-Dimethylamino-benzyl)-piperidin-4-yl]-[4-(3,3-dimethyl-butyl)-phenyl]-(3-methyl-but-2-enyl)-amine], the “Anti-Writhing % Protection” value was determined as 95%.

Turning to `CC(C)=CCN(c1ccc(C(C)C)cc1)C1CCN(CCC(C)(C)C)CC1` [Example 26, [1-(3,3-Dimethyl-butyl)-piperidin-4-yl]-(4-isopropyl-phenyl)-(3-methyl-but-2-enyl)-amine], the “Anti-Writhing % Protection” value amounted to 11%.
